Here are results for six compounds from ChEMBL document CHEMBL1133039, “Stability of bioreductive drug delivery systems containing melphalan is influenced by conformational constraint and electronic properties of substituents” (2000).

Data set [1] can be described thus: Degradation under physiological pH 7.4. Conditions: buffer.
Data set [2] can be described thus: Degradation under physiological pH 7.4 in the presence of glutathione. Conditions: gsh.
Data set [3] is described as follows: Degradation under physiological pH 9.0. To be noted: buffer.
Data set [4] in a line: Degradation under physiological pH 9.0; Instantaneous. Conditions: buffer.

Regarding `COC(=O)C(Cc1ccc(N(CCCl)CCCl)cc1)NC(=O)CC(C)(C)C1=C(C)C(=O)C(C)=C(Br)C1=O` (stereo not drawn), the values for the T1/2 in data set [1], in data set [2] and in data set [3] were 1.13 h, less than 0.0167 h and less than 1 min, respectively.

For the compound `COC(=O)C(Cc1ccc(N(CCCl)CCCl)cc1)NC(=O)CC(C)(C)C1=C(C)C(=O)C(C)=CC1=O` (stereo not drawn), the T1/2 in data set [1] was 1.47 h; in data set [2], 0.533 h; in data set [3] it was less than 1 min.

For `COC(=O)C(N)Cc1ccc(N(CCCl)CCCl)cc1` (stereo not drawn), the T1/2 in data set [1] is 0.617 h; in data set [2] it was 0.65 h; in data set [4], “Instantaneous”.

For the compound `COC(=O)C(Cc1ccc(N(CCCl)CCCl)cc1)NC(=O)CC(C)(C)C1=C(C)C(=O)C(C)=C(C2=CC=C2)C1=O` (stereo not drawn), the T1/2 worked out at 1.53 h in data set [1], 1.4 h in data set [2] and 1 min in data set [3].

In the case of `CNC1=C(C)C(=O)C(C)=C(C(C)(C)CC(=O)NC(Cc2ccc(N(CCCl)CCCl)cc2)C(=O)OC)C1=O` (stereo not drawn), the values for the T1/2 in data set [1], in data set [2] and in data set [3] were 1.45 h, 2.23 h and 1.22 min, respectively.

In the case of `COC(=O)C(Cc1ccc(N(CCCl)CCCl)cc1)NC(=O)CC(C)(C)C1=C(C)C(=O)C(C)=C(C)C1=O` (stereo not drawn), the T1/2 in data set [1] was 7.97 h; in data set [2] it was 3.37 h; in data set [3] it was 6.32 min.
